Values of other authors, collected in patent publication US4318847A, “Physiologically active tetrapeptides” (Zaidan Hojin Biseibutsu Kagaku Kenkyu Kai, priority 1979, dated 1982).

Molecular target: chymotrypsin (Bos taurus, UniProt P00766)
Conditions: prior art; cited from earlier work

In the case of `CC(C)C[C@H](NC(=O)[C@@H](NC(=O)N[C@@H](Cc1ccccc1)C(=O)O)[C@@H]1CCN=C(N)N1)C(=O)N[C@H](C=O)Cc1ccccc1` [chymostatin], the inhibition of chymotrypsin is given as “inhibit”.
